Source: the NIST ThermoML archive (doi:10.1016/j.jct.2010.09.009)

Test: xn = mol fraction of the nth substance listed
Details: 101 kPa, Liquid, Vibrating tube method

CCC[N+](CCC)(CCC)CCC.[Br-] [tetrapropylammonium bromide] + O
mass density [kg/m3]
Details | 278.15 K | 283.15 K | 288.15 K | 293.15 K | 298.15 K | 303.15 K | 308.15 K
x1 = 0.0009007 | 1001.46 | 1001.15 | 1000.51 | 999.59 | 998.41 | 996.98 | 995.34
x1 = 0.001798 | 1002.95 | 1002.59 | 1001.92 | 1000.97 | 999.76 | 998.31 | 996.64
x1 = 0.003591 | 1005.93 | 1005.47 | 1004.73 | 1003.71 | 1002.44 | 1000.94 | 999.22
x1 = 0.007135 | 1011.86 | 1011.21 | 1010.3 | 1009.13 | 1007.74 | 1006.12 | 1004.28
x1 = 0.0107 | 1017.75 | 1016.94 | 1015.86 | 1014.54 | 1012.99 | 1011.24 | 1009.27
x1 = 0.01422 | 1023.49 | 1022.47 | 1021.22 | 1019.76 | 1018.07 | 1016.18 | 1014.09
x1 = 0.0177 | 1029.14 | 1027.82 | 1026.37 | 1024.72 | 1022.89 | 1020.85 | 1018.64
x1 = 0.02206 | 1035.9 | 1034.29 | 1032.62 | 1030.75 | 1028.71 | 1026.51 | 1024.13
x1 = 0.02629 | 1042.12 | 1040.3 | 1038.39 | 1036.31 | 1034.11 | 1031.75 | 1029.25
x1 = 0.03056 | 1048.03 | 1046.04 | 1043.91 | 1041.64 | 1039.25 | 1036.7 | 1034.01
x1 = 0.03484 | 1053.77 | 1051.49 | 1049.13 | 1046.66 | 1044.1 | 1041.43 | 1038.63
x1 = 0.04311 | 1063.57 | 1061 | 1058.3 | 1055.48 | 1052.62 | 1049.65 | 1046.55
x1 = 0.05132 | 1072.31 | 1069.28 | 1066.28 | 1063.18 | 1060.04 | 1056.85 | 1053.57
x1 = 0.06089 | 1080.88 | 1077.47 | 1074.18 | 1070.85 | 1067.47 | 1064.12 | 1060.64
x1 = 0.07486 | 1090.59 | 1087.19 | 1083.42 | 1079.85 | 1076.3 | 1072.68 | 1069.06
x1 = 0.09142 | 1099.07 | 1095.35 | 1091.67 | 1087.93 | 1084.23 | 1080.53 | 1076.66
x1 = 0.1085 | 1105.77 | 1101.87 | 1098.06 | 1094.27 | 1090.46 | 1086.64 | 1082.79
x1 = 0.1261 | – | 1106.82 | 1102.87 | 1098.86 | 1094.96 | 1091.13 | 1087.33
